Yeast mating assay B: variants of the scFv Ab-14

Target peptide (SARS-CoV-2 spike, HR2 region): PDVDLGDISGINAS

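These sequences belong to a second round, designed from the earlier measurements on random variants of the parent. Several design methods are mixed in this list. Affinity was read by AlphaSeq, a pooled yeast mating assay with surface-displayed partners. After mating in shaken culture at 30 °C for 16 h, diploids were selected and their barcode pairs sequenced. Each replicate has its own calibration line, from reference interactions of the BCL2 family. Each pool was mated in six replicate cultures.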

Ab-14 is the parent antibody, in scFv form: VH, then three GGGGS repeats, then VL. The light chain is unchanged in all variants.
VH: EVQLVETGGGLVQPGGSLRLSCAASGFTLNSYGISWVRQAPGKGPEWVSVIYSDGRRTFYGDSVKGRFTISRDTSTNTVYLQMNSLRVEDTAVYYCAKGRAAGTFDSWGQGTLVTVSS
VL: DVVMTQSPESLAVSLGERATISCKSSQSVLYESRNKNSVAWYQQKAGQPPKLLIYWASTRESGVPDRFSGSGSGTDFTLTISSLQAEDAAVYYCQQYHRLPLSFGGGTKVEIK

Variants are written as CDR1, CDR2 and CDR3 of the heavy chain (limits as in the source). Parent: GFTLNSYGIS, VIYSDGRRTFYGDSVK, GRAAGTFDS. Numbers give log10(Kd / nM), so 0 is 1 nM and 3 is 1 µM. Smaller is tighter. Replicates are averaged; those with no signal do not enter the mean. An entry "no signal" has no value in the source: the pair was not observed among the diploids in any replicate. This suggests poor binding but is not conclusive. The range of this assay differs from that of the first round, and the authors advise against merging the two.

CDR-H1	CDR-H2	CDR-H3	mean, log10 nM	replicates with signal	empty controls
GFSLNNYGIS	VIYSDGRRTFYGDAVK	GKTAGTFDS	0.48	6 of 6	0 of 18
GFQLDEYGIS	VIYADGKRTAYAQNFK	GNGLVIQEG	no signal	0 of 6	0 of 18
GFDLNSYGIS	VIYSDGRRTFYSDQVK	GQTAGTFDS	0.16	6 of 6	0 of 18
GFTINDYGIS	VIYSDGRRTFYGDSVK	GRNAGTMPS	0.42	6 of 6	0 of 18
GFTLNSYGIS	VIYADGRRTIYGDSVK	GSAAGTFDS	1.29	5 of 6	1 of 18
GFSLEEFGIS	VIYADGFRRAYAQDVK	GGHAGHFVV	no signal	0 of 6	0 of 18
GIDLQEYGVS	VIYADGSRQSYADSVK	GQHAGYLDK	2.35	1 of 6	1 of 18
GFTIDSYGIS	VIDSDGRRTFEGDSVK	GRAAGTALS	no signal	0 of 6	0 of 18
GFTLNSYGIS	VIYSEGRRTFYSDLVK	GRFGGTFDS	no signal	0 of 6	0 of 18
GFDLDEYGIS	VIYADGMRTAYSDDVK	GETAGTFDV	1.10	6 of 6	0 of 18
GFDLNEYGIS	VIYADGMRKYYADSVK	GEVAGTFDV	-1.09	6 of 6	0 of 18
GFDLNEYGIS	VIYADGMRTAYIDSVK	GENAGTFDM	-0.02	6 of 6	1 of 18
GFTLNEYGIS	VIYPDGRRTFYTDSVK	GRAAGTFDS	1.58	6 of 6	0 of 18
GFDLNEYGIS	VIYADGRRTFYADSVK	GGEAGTFNM	-0.21	6 of 6	0 of 18
GKNLDEYGIS	VIYADGVRSHYAESVK	GQHGTYGVA	2.11	1 of 6	0 of 18
GFTLNEYGIS	VIYSDGQRTFYQDSVK	GRAAGTFDS	0.63	6 of 6	0 of 18
GFSLNEYGIS	VIYADGIRQHYSDKVK	GVVFGNVMF	no signal	0 of 6	0 of 18
GFDLDEYGIS	VIYADGQRTAYADSVK	GTNAGTFDI	-0.89	6 of 6	0 of 18
GFNLDEYGIS	VIYADGVREAYANKVK	GEQGSFFIT	3.05	1 of 6	0 of 18
GFDLNSYGIS	VIYSDGRRTFYSDSVK	GRAAGWGNS	no signal	0 of 6	0 of 18
GFDLDEYGIS	VIYADGMRTFYADSVK	GEVAGTFDI	0.34	6 of 6	0 of 18
GFSLNSYGIS	VIYSDGRRTMYGDSVK	GRAAGKFDS	3.21	1 of 6	0 of 18
GFDLNEYGIS	VIYADGRRTAYADSVK	GETAGTFDS	1.03	3 of 6	0 of 18
GFDLNSYGIS	VIYSDGRRTFYGDSVK	GEAAGTFDQ	1.47	4 of 6	0 of 18
GFDLSEYGIS	VIYADGRRTFYTDSVK	GETAGTFDE	-0.36	6 of 6	0 of 18
GFDLNDYGIS	VIYSDGRRTYYGDSVK	GRAAGTFDS	0.08	6 of 6	1 of 18
GFSLNEYGIS	VIYSDGRRTFYHDSVK	GRYAGTFDS	0.64	6 of 6	0 of 18
GFDLNEYGIS	VIYADGRRTAYSDSVK	GEAAGTFDS	-0.22	6 of 6	0 of 18

Continued, with the values leading:

mean, log10 nM	replicates with signal	empty controls	CDR-H1	CDR-H2	CDR-H3
1.13	6 of 6	0 of 18	GFDLGEYGIS	VIYADGQRVSYQDAVK	GQSSVYYTA
-0.35	6 of 6	0 of 18	GFQLDEYGIS	VIYADGRRTAYQDSVK	GEVAGTFDV
no signal	0 of 6	0 of 18	GFDLDEYGIS	VIYADGSRTAYSKNVK	GGFDDMVLV
no signal	0 of 6	0 of 18	GADLQEYGIS	VIYADGNRYAYTNSVK	GTQAGSLIV
0.02	6 of 6	0 of 18	GFDLEDYGIS	VIYADGMRTAYIDSVK	GEAAGTFDS
1.19	1 of 6	0 of 18	GFNLNSYGIS	VIYSDGRRTIYGDSVK	GRNAGTFDS
2.14	5 of 6	1 of 18	GFQLNSYGIS	VIYSDGRRTFYQDSVK	GRAAGTFDS
1.06	4 of 6	0 of 18	GFELNSYGIS	VIYSDGRRTFYGDNVK	GNTAGTFDS
1.20	6 of 6	0 of 18	GFSLNSYGIS	VIYSDGRRTFYGDSVK	GRDAGTFDQ
-0.27	6 of 6	1 of 18	GFDLNEYGIS	VIYADGKRTFYADSVK	GKAAGTFDQ
-1.24	6 of 6	0 of 18	GFDLDEYGIS	VIYADGQRTFYADSVK	GETAGTFDV
no signal	0 of 6	0 of 18	EMDLQEFGIS	VIYADGKREAYKDDFK	GQIAGTFDL
no signal	0 of 6	0 of 18	GFDLQEYGIS	VIYADGNRYAYTNSVK	GTQAGSLIV
2.86	1 of 6	0 of 18	GFTLNDYGIS	VIYADGRRTFYGDSVK	GRAAGTFMS
-0.32	6 of 6	0 of 18	GFDLSEYGIS	VIYADGKRTFYTDSVK	GEVAGTFDV
0.82	6 of 6	0 of 18	GFGLNSYGIS	VIYSDGRRTFYKDSVK	GQTAGTFDS
-0.94	6 of 6	0 of 18	GFDLDEYGIS	VIYADGKRTFYADSVK	GNVAGTFDT
-0.55	6 of 6	0 of 18	GFDLNEYGIS	VIYADGSRTAYADSVK	GEAAGTFDQ
no signal	0 of 6	0 of 18	GFALNSYGLS	VIYADGRRLFYGDSVK	GRATAAFDS
no signal	0 of 6	0 of 18	GFTLNSYGIS	VIYSDGRRTWYDDSVK	GTLAGFFDS
1.71	4 of 6	0 of 18	GFTLNSYGIS	VIYSDGRRTAYGDSVK	GRAAGTFDD
no signal	0 of 6	0 of 18	GFGLDEYGIS	VIYADGKRASYHDNVK	GFNYGVDIL
0.49	6 of 6	0 of 18	GFELNEYGIS	VIYSDGRRTFYADSVK	GRDAGTFDS
0.34	6 of 6	0 of 18	GFTLNSYGIS	VIYSDGRRTFYIDSVK	GEAAGTFDT
1.96	1 of 6	1 of 18	GDDIDEYGIS	VIYADGHRKQYSENVK	GYNAGTLDE
no signal	0 of 6	0 of 18	GFDLKEYGIS	VIYADGERAGYADNVK	GEWGGKFLV
0.41	6 of 6	0 of 18	GFDLNEYGIS	VIYADGSRTAYADDVK	GNEAGTFDV
-0.48	6 of 6	0 of 18	GFDLNEYGIS	VIYADGHRTAYSDSVK	GQSAGTFDA
-0.40	6 of 6	1 of 18	GFNLDEYGIS	VIYADGRRTFYADSVK	GGAAGTFDV

For reference, 7 entries of the list once more:

CDR-H1	CDR-H2	CDR-H3	mean, log10 nM	replicates with signal	empty controls
GFSLNNYGIS	VIYSDGRRTFYGDAVK	GKTAGTFDS	0.48	6 of 6	0 of 18
GFSLEEFGIS	VIYADGFRRAYAQDVK	GGHAGHFVV	no signal	0 of 6	0 of 18
GFDLDEYGIS	VIYADGSRTAYSKNVK	GGFDDMVLV	no signal	0 of 6	0 of 18
GFELNEYGIS	VIYSDGRRTFYADSVK	GRDAGTFDS	0.49	6 of 6	0 of 18
GIDLQEYGVS	VIYADGSRQSYADSVK	GQHAGYLDK	2.35	1 of 6	1 of 18
GFDLNEYGIS	VIYADGKRTFYADSVK	GKAAGTFDQ	-0.27	6 of 6	1 of 18
GFTINDYGIS	VIYSDGRRTFYGDSVK	GRNAGTMPS	0.42	6 of 6	0 of 18

Background: pairings of all heavy chain designs with three empty control strains gave a value in 1% of cases (median 2.08, 5th percentile 0.84). Values in that range, when seen in few replicates, are hard to tell from nonspecific mating. Also given: how often the same scFv was detected with the empty control strains. In the paper, a design with two or fewer of six values counts as a poor binder.

The measurements come from Li et al. 2023 (doi:10.1038/s41467-023-39022-2) through the FLAb antibody collection.